Literature values in patent US7179627B2, “Cyclooxygenase variants and methods of use” (Brigham Young University, priority 2001, dated 2007).

Details: under physiological conditions; cited from earlier work

Structure (SMILES): CC(=O)Nc1ccc(O)cc1 [Acetaminophen]
- steady-state concentration: approximately 100 μM
